The values that follow come from patent US7230020B2, “11β-hydroxysteroid dehydrogenase inhibitors” (priority 2003, dated 2007).

The chains behind the UniProt entries cited, without tags or fusion partners. Where a name states a change or a piece, a line headed by the entry shows the natural chain unless it says otherwise.
UniProt P28845: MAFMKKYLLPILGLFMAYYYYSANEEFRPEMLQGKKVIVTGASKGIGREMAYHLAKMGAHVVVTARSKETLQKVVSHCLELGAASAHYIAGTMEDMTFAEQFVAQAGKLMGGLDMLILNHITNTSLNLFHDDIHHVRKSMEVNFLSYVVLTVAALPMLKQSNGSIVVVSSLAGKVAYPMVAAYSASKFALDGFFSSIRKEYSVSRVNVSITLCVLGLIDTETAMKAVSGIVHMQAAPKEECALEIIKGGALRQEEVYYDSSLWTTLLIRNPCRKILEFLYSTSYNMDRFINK

In the assay the target is T1, human hepatic microsomal 11β HSD1 (Homo sapiens, UniProt P28845).
T1 construct: human hepatic microsomes were obtained from XenoTech, product H0610/Lot 0210078; tissue XenoTech H0610/Lot 0210078; host or cells: human liver (hepatic microsomes)
The assay can be described thus: biochemical. The settings on record: classical enzyme assay, Buffer 1, 175 nM cortisone, 5 μg microsomal protein, 30 mins at 37° C. (FIG. 8).

By IC50 is commonly meant the midpoint of a concentration-inhibition curve. A lower IC50 goes with greater potency in that assay. For `CC1(C)[C@@H](OC(=O)CCC(=O)O)CC[C@]2(C)[C@H]3C(=O)C=C4[C@@H]5C[C@@](C)(C(=O)O)CC[C@]5(C)CC[C@@]4(C)[C@]3(C)CC[C@@H]12` [carbenoxolone, Carbenoxolone, reference compound], inhibition was half-maximal at 119 nM (IC50).
